Experimental data from PubChem BioAssay AID1416 (The Scripps Research Institute Molecular Screening Center, 2008).
Only a part is listed here, and it is no random draw. Activity calls are given as the source filed them.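 The calls were made as follows: active = inhibition above the mean inhibition of all tested compounds plus 3 SD, set separately per screening campaign (cut at about 2.9% in these data); inactive = the rest.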

Protein sequences, listed by entry. Tags and fused reporters are not part of them. Lines headed by an entry give the natural chain unless they say otherwise; changes in a name come on top.
UniProt Q9NZJ5: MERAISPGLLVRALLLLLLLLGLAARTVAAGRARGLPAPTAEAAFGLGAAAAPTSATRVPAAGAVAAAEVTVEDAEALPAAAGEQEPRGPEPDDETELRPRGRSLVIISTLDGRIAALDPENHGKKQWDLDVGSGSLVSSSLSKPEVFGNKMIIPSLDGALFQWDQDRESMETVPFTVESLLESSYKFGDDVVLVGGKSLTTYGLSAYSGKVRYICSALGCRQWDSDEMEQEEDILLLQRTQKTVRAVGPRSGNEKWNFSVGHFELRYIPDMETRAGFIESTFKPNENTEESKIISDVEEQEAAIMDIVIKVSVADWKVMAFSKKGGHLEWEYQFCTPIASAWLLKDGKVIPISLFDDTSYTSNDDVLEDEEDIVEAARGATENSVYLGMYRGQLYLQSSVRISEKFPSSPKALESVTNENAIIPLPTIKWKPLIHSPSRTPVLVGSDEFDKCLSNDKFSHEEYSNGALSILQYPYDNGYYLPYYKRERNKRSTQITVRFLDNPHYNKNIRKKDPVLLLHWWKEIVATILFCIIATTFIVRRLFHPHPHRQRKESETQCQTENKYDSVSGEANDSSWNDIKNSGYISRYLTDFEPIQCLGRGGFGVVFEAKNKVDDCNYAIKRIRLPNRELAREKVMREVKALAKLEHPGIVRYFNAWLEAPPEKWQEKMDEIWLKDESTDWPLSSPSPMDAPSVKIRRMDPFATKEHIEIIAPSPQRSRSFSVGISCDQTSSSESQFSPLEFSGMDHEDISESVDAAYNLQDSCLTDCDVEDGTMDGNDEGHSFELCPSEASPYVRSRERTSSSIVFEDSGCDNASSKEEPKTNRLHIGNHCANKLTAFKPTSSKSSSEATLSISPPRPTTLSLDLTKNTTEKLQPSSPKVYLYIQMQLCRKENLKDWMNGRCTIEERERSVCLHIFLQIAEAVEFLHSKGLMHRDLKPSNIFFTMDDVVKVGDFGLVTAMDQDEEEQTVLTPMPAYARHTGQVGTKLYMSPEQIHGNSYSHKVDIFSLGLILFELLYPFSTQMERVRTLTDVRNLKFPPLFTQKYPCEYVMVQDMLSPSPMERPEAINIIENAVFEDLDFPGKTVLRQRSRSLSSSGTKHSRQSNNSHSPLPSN

These molecules were tested against Eukaryotic translation initiation factor 2-alpha kinase 3 (Homo sapiens) (UniProt Q9NZJ5) (assay: block of dimerizer-induced PERK translation repression, primary screen, PERK inhibitor project, CHO PERK-DD cells, SEAP luminescence, HTS (AID 1416;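 also: PERK kinase domain activated by AP20187 dimerizer at 100 nM; 0% = DMSO with dimerizer and 100% = rapamycin at 8.4 µM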)). Details: CHO PERK-DD fusion, SEAP luminescence translation reporter; at 5.6 µM; stronger effect = higher value.

Row | Structure (SMILES) | inhibition
1 | C[N+]1=C2C=CC=CC=C2SC12C([N+](=O)[O-])=CC([N+](=O)[O-])=C[C-]2[N+](=O)[O-] (stereo unspecified) | inactive: 1.01%
2 | Nc1ccc([As](=O)(O)c2ccc(N)cc2)cc1 | inactive: 1%
3 | CCc1nc2c(n1)c1c(non1O)c1c2no[n+]1[O-] | inactive: 0.82%
4 | O=[N+]([O-])c1cc([N+](=O)[O-])c(CCNc2ccccc2)c([N+](=O)[O-])c1 | inactive: -0.85%
5 | Cc1ccc(NP(=O)(Oc2ccccc2)Oc2ccccc2)nc1 | inactive: -0.11%
6 | O=[N+]([O-])c1cccc2n[nH]nc12 | inactive: 0.39%
7 | CC(=O)N1C2C3N(C(C)=O)C1C1N(C(C)=O)C(C(N1C(C)=O)N3C(C)=O)N2C(C)=O | inactive: 0%
8 | COc1ccc(C2=NCC(CBr)S2)cc1 (stereo unspecified) | inactive: 1.23%
9 | O=C(O)CNc1ccc([As](=O)(O)O)cc1 | inactive: 0.38%
10 | O=[N+]([O-])c1cccc(NC2=NCC(CBr)S2)c1 (stereo unspecified) | inactive: -0.27%
11 | O=[N+]([O-])c1ncn(CCn2ncnc2[N+](=O)[O-])n1 | inactive: 0.38%
12 | CC(C)(C)C(=O)NC(Sc1ccncn1)C(Cl)(Cl)Cl (stereo unspecified) | inactive: -0.17%
13 | O=C(Nc1cc([As](=O)(O)O)ccc1O)c1ccccc1 | inactive: 1.14%
14 | O=P(Nc1ccccn1)(c1cccc2ccccc12)c1cccc2ccccc12 | inactive: 2.2%
15 | Cc1cc(SC(NC=O)C(Cl)(Cl)Cl)ncn1 (stereo unspecified) | inactive: 1.12%
16 | O=[N+]([O-])c1ccc(Nc2ccc(Oc3ccc([N+](=O)[O-])cc3[N+](=O)[O-])cc2)c([N+](=O)[O-])c1 | inactive: 1.67%
17 | CCOC(=O)Nc1cccc([As](=O)(O)O)c1 | inactive: -0.35%
18 | Cc1cc(SC(NC(=O)c2ccccc2)C(Cl)(Cl)Cl)nc(C(C)C)n1 (stereo unspecified) | inactive: 1.01%
19 | CCOC(=O)Nc1ccc([As](=O)(O)O)c(O)c1 | inactive: 1.23%
20 | CCC(C)N(CC(C)C)C(=S)SC(NC(C)=O)C(Cl)(Cl)Cl (stereo unspecified) | inactive: 1.24%
21 | CCOC(=O)c1ccc(NC(=O)C(C)(CCl)SC)cc1 (stereo unspecified) | inactive: 1.01%
22 | O=C(COc1ccccc1)OC1CN2CCC1CC2 (stereo unspecified) | inactive: 1.24%
23 | COP1(=S)c2c(C)nn(CCC#N)c2N=C(c2ccc(F)cc2)N1C (stereo unspecified) | inactive: 0.28%
24 | COc1ccc(N/C(=N/P(=O)(N2CCOCC2)N2CCOCC2)N2CCOCC2)cc1 | inactive: 0.7%
25 | COc1cc(I)ccc1[As](=O)(O)O | inactive: 2%
26 | COc1ccc2nc(NP(=O)(c3ccccc3)c3ccccc3)sc2c1 | inactive: 0.18%

Row | Structure (SMILES) | inhibition
27 | Cc1c2c(nc3ccccc13)SC(C(Cl)Cl)C2 (stereo unspecified) | inactive: -0.26%
28 | Cc1cc(=O)[nH]c(N[N+](=O)[O-])n1 | inactive: 0.54%
29 | O=C(OC1CN2CCC1CC2)C12CC3CC(CC(C3)C1)C2 (stereo unspecified) | inactive: -1.96%
30 | O=[N+]([O-])c1cc([N+](=O)[O-])c(-c2ccn[nH]2)s1 | inactive: 1.17%
31 | CC(C)NC(=O)NP(=O)(Oc1ccccc1)Oc1ccccc1 | inactive: 1.31%
32 | CCN(CC)C(=S)SC(NC=O)C(Cl)(Cl)Cl (stereo unspecified) | inactive: 0.8%
33 | ClCCSc1nnc(-c2cccnc2)o1 | inactive: 1.32%
34 | CC(C)c1ccc(OP(=O)(Nc2ccccn2)Oc2ccccc2F)cc1 (stereo unspecified) | inactive: -0.3%
35 | Cc1ccc(OP(=O)(Nc2ccc([N+](=O)[O-])cn2)Oc2ccc(C)cc2)cc1 | inactive: 0.4%
36 | Cc1ccc2nc3c(c(C)c2c1)CC(C(Cl)Cl)S3 (stereo unspecified) | inactive: -0.17%
37 | O=[As](O)(c1ccc(O)cc1)c1ccccc1O | inactive: 0.45%
38 | C[As](=O)(O)c1cccc(C(=O)O)c1 | inactive: 0.19%
39 | CCOP1(=S)c2c(C)nn(CCC#N)c2N=C(c2ccc(F)cc2)N1C (stereo unspecified) | inactive: 1.98%
40 | O=[N+]([O-])c1ccc2c(c1)nnn2O | inactive: -0.44%
41 | Nc1ccccc1[As](=O)(O)c1ccccc1 | inactive: 0.49%
42 | O=C(O)COc1ccc([As](=O)(O)O)cc1[N+](=O)[O-] | inactive: 1.96%
43 | O=P(Nc1nccs1)(Oc1ccccc1)Oc1ccccc1 | inactive: 1.55%
44 | O=P(Nc1nccs1)(c1ccccc1)c1nc2ccccc2s1 (stereo unspecified) | inactive: 0.36%
45 | CCOP1(=S)c2c(C)nn(CCC#N)c2N=C(c2ccccc2F)N1C (stereo unspecified) | inactive: 0.22%
46 | CS(=O)(=O)c1cc([N+](=O)[O-])c2no[n+]([O-])c2c1 | inactive: 0.83%
47 | CCOP(=O)(Nc1cccc2ccccc12)OCC | inactive: -0.7%
48 | COc1cc(C2NCCC3(OCCO3)C2(C)C)cc(OC)c1OC (stereo unspecified) | inactive: -0.48%
49 | Cc1ccc(NCCc2c([N+](=O)[O-])cc([N+](=O)[O-])cc2[N+](=O)[O-])cc1 | inactive: 0.12%
50 | Nc1cccc2c([As](=O)(O)O)cccc12 | inactive: 1.2%
51 | CCCOP(=S)(Nc1nc(N)cc(=O)[nH]1)OCCC | inactive: 0.69%
